Laboratory results as given in PMC6971430, “Manipulation of the dually thermoresponsive behavior of peptide‐based vesicles through modification of collagen‐like peptide domains” (Bioengineering & Translational Medicine, 2019).

Key:
[1] = target: N3-(GPO)6GG; assay: circular dichroism spectroscopy; free CLP peptides, 0.35 mM in HPLC grade water (pH 6.5 at 4°C), 0.2 cm cuvette; wavelength scans at 4 and 80°C and melting scans; monomers to triple helix
[2] = target: N3-(GPO)7GG; assay: as above

| stoichiometry N [1] | stoichiometry N [2] | Substance |
| --- | --- | --- |
| 3 | – | N3-(GPO)6GG (peptide) |
| – | 3 | N3-(GPO)7GG (peptide) |
